Experiments:
[1] = system: BeWo cells; conditions: cited from earlier work
[2] = system: HPEC-A2 monolayer
[3] = system: BeWo b30 monolayer
[4] = system: BeWo b30 / HPEC-A2 co-culture

FITC-dextran
Viability of BeWo cells [1]: did not affect the viability
Transport, basolateral amount of the initial dose (ID) [2]: 6.2%
Transport, basolateral amount of the initial dose (ID) [3]: 0.0%
Transport, basolateral amount of the initial dose (ID) [4]: 0.0%

Reference: PMC5876397, “An advanced human in vitro co-culture model for translocation studies across the placental barrier” (Scientific Reports, 2018)
